Test results: article PMC8082182 (Frontiers in Pharmacology, 2021)

Conditions: Bloodstream; Not improved patients; IQR not reported for n < 5

In the case of `CN[C@H](CC(C)C)C(=O)N[C@H]1C(=O)N[C@@H](CC(N)=O)C(=O)N[C@H]2C(=O)N[C@H]3C(=O)N[C@H](C(=O)N[C@H](C(=O)O)c4cc(O)cc(O)c4-c4cc3ccc4O)[C@H](O)c3ccc(c(Cl)c3)Oc3cc2cc(c3O[C@@H]2O[C@H](CO)[C@@H](O)[C@H](O)[C@H]2O[C@H]2C[C@](C)(N)[C@H](O)[C@H](C)O2)Oc2ccc(cc2Cl)[C@H]1O` [vancomycin], the “AUC0–24, median” value is reported as 225.0 µg·h/mL.
